One compound from patent EP0072987A1 (priority 1981, dated 1983) can be followed below.

For this experiment, the system named is Tumorart PS 2684. In words: Survival of tumour-bearing mice, NCI protocol 1200 (T/C). In kind it is in vivo, Mäusen. Conditions: single injections on 9 days, tumour i.p. 10^6 Zellen/Maus.

For `CN1CCCOP1(=O)N(CC(Cl)CO)CC1CO1` (stereo not shown), the T/C-Wert came out at 157 (Verabreichte Dosis 25 mg/kg), 180 (Verabreichte Dosis 50 mg/kg), 300 (Verabreichte Dosis 100 mg/kg) and 132 (Verabreichte Dosis 12,5 mg/kg).
